Experimental data taken from ChEMBL document CHEMBL1129520 (J Med Chem, 1996).

By UniProt entry, the sequences of proteins in these tests, tags left out. Where a name states a change or a piece, a line headed by the entry shows the natural chain unless it says otherwise.
UniProt Q9QYN8: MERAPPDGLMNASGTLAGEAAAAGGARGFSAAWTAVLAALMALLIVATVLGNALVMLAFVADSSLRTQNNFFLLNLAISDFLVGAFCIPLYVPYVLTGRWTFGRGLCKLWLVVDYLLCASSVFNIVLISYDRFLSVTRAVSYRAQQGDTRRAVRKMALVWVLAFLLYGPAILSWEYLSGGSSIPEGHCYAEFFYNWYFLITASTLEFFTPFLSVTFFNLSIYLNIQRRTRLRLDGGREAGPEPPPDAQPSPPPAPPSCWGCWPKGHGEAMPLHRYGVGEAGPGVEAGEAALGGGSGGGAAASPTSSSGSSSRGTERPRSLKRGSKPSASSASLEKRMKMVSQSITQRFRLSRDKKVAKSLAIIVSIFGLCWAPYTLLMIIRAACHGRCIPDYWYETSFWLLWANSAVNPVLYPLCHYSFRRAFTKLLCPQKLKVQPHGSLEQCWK

Target: Histamine H3 receptor (Rattus norvegicus, UniProt Q9QYN8)
Experiment: Binding affinity towards Histamine H3 receptor on synaptosomes from rat cerebral cortex
Format: subcellular, Brain
Method in brief: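 Rat cerebral cortex homogenized in ice-cold 50 mM Na2HPO4/KH2PO4, pH 7.5, then washed membranes after two differential centrifugations. Incubated 60 min at 25 °C with [3H]-(R)-α-methylhistamine and drugs at various concentrations. Stopped by ice-cold dilution, vacuum-filtered through glass-fibre filters, scintillation counted. Nonspecific binding defined with 3 µM thioperamide.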

## Cc1[nH]cnc1CSCCNC(=N)NCCCc1c[nH]cn1 [IMPROMIDINE]
  Ki: 39.8 nM
